# Values of other authors as cited in publication PMC10994248, “First-In-Human Phase I Study of Tinengotinib (TT-00420), a Multiple Kinase Inhibitor, as a Single Agent in Patients With Advanced Solid Tumors” (The Oncologist, 2024).
# Tested on: FGFR2 fusion or rearranged cholangiocarcinoma
# Details: after failure of first-line chemotherapy ref 20-22; cited from earlier work
structure (smiles),measurement,value
C=CC(=O)N1CC[C@H](n2nc(C#Cc3cc(OC)cc(OC)c3)c3c(N)ncnc32)C1 [futibatinib],Objective response rate,42%
